Results reported in article PMC11369174, “Proteome-scale characterisation of motif-based interactome rewiring by disease mutations” (Molecular Systems Biology, 2024).

System: KPNA4 ARM
Experiment: GenVar_HD2 ProP-PD phage selection, KPNA4 ARM
Format: binding, human
Conditions: bait-prey protein level, bait_accession O00629
Experimental: Phage display screens were performed according to previous reports (Benz et al, [2022]; Ali et al, [2020]) and for four consecutive selection rounds with five to six replicates per bait protein domain against the […] library.
On the first day, both bait (15 µg in 100 µL PBS) and control protein domains (GST and MBP; 10 µg in 100 µL PBS) were immobilised on a 96-well MaxiSorb plate (Nunc) overnight in the cold room while shaking. Additionally, a 10 mL culture of Omnimax E. coli bacteria supplemented with 10 µg/mL tetracycline was incubated overnight at 37 °C at 200 rpm.
First, protein solutions were removed from both control and bait protein domain plates and the wells were blocked with 0.5% BSA in PBS (200 µL/well) for 1 h in the cold room while shaking. After that, three Omnimax E. coli cultures were started supplemented with either 30 µg/mL kanamycin, 100 µg/mL carbenicillin and 10 µg/mL tetracycline and incubated at 37 °C and 200 rpm. The two first cultures served as a means to check for helper phage contamination (kanamycin) and phages with library phagemid contamination (carbenicillin) of the culture used for elution of the phages during selections. The tetracycline Omnimax E. coli culture was grown until OD at 600 nm reached 0.6–0.8. […]

O43526
max_promiscuity: 6 | max_specificity: 0.8684
